## Yeast mating assay B: variants of the scFv Ab-14

Source: Li et al. 2023 (doi:10.1038/s41467-023-39022-2), MIT Lincoln Laboratory and A-Alpha Bio; data file from the FLAb repository.

Target: peptide PDVDLGDISGINAS, taken from heptad repeat 2 (HR2) of SARS-CoV-2 spike.

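The parent was found by panning a naive human phage display library on the peptide. The variants were designed computationally from a first round of random CDR variants and then made and measured. Group labels follow the data file (En: ensemble of fine-tuned language models; GP: Gaussian process model; HC: hill climbing; Gen: genetic algorithm; Gibbs: Gibbs sampling; a sequence that several methods proposed may carry one label only). The scFvs were displayed on barcoded MATa yeast, the peptide on MATalpha yeast. The frequency of each diploid, read from paired DNA barcodes, reflects how well the two displayed proteins bind. Read counts were normalised to the haploid input and turned into Kd by a linear fit to BCL2-family pairs of known affinity, for each replicate. Each pool was mated in six replicate cultures.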

Parent scFv Ab-14: VH joined to VL by a 15-residue (Gly4Ser)3 linker. Changes lie in the light chain CDRs alone.
VH: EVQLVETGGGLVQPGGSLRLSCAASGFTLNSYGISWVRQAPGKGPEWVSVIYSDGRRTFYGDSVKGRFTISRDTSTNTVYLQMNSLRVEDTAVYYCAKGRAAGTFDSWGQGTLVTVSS
VL: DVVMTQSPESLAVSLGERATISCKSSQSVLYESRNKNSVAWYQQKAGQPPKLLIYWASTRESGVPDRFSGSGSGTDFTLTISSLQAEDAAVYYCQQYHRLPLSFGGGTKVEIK

The parent's light chain CDRs are KSSQSVLYESRNKNSVA, WASTRES, QQYHRLPLS; each variant's own CDRs replace them letter for letter.
Variants here have more than six changes.
Scale: log10 of Kd in nM, estimated from mating counts; low values are strong binders.
A mean of the replicates is given; it leaves out those without a signal.
A pair that was not seen in any replicate is written "nd"; this usually means weak binding, but a binder can also be missed.
Of ten entries with the parent sequence, four were seen in most replicates (averages 0.34 to 2.37), three in one and three in none, so single entries are noisy.

With HMSQVTMYGMWMKNSVA | QTSTREE | QQYDRLPLS [En_HC] the result was 0.90 (6 of 6 replicates).
With IVSQLMLWGMHHKNSIA | EAQTRIN | QQYERLPLF [En_Gen] the result was nd (0 of 6 replicates).
With KLEWSQLYWSRNVNSVA | NASTREE | QQYHRLPLS [GP_Gibbs] the result was -0.29 (6 of 6 replicates).
With KYEFSVLELSRNSNSVA | NASTREE | QQYHRLPLS [GP_Gibbs] the result was 0.01 (6 of 6 replicates).
With KISQMARVGSTHSNSIA | EVVTRMK | QQYHRLPLA [En_Gen] the result was 1.18 (6 of 6 replicates).
With HMSMLTLGGMRQRNSVA | QMTTREN | QQYDRLPLS [En_Gen] the result was 0.52 (6 of 6 replicates).
With MISQSFLIGSYAKNSVA | QTSTRES | QQYDRLPLS [En_HC] the result was -0.29 (6 of 6 replicates).
With KLSMSMLMESRNKNSVA | ENSTREN | QHYHRLPLS [En_HC] the result was nd (0 of 6 replicates).
With KLSMTTEMEHVNRNSVA | ELVTRMR | QQYNRLPLS [En_Gen] the result was 0.74 (6 of 6 replicates).
With KLNKHAWDFNETWNSVA | DHSMRVT | QDYIRLPLT [En_Gibbs] the result was 2.23 (2 of 6 replicates).
With TISTSMRYESSLKNAIA | NAQTREQ | QQYHRLPLS [En_HC] the result was 0.33 (6 of 6 replicates).
With NLSMELEDAGVKDMSIA | DAELSTM | QQYMRLPLS [En_Gibbs] the result was 1.05 (6 of 6 replicates).
With MLLQATMYGERNRNSVA | HANTRED | QQYHRLPLI [En_HC] the result was 1.91 (4 of 6 replicates).
With NLVGRVPDMYDGRNAIA | DMHCRAG | QQYERLPLA [En_Gibbs] the result was 2.13 (3 of 6 replicates).
With KFSQMVLTGVYVSNSVA | QMSTRVN | QQYHRLPLM [En_HC] the result was 0.98 (6 of 6 replicates).
With KLPASTMQESVSKNSVA | ELSTRGS | QQYHRLPLS [En_HC] the result was 0.58 (6 of 6 replicates).
With KFGQSVLGGSYVRNSVA | QQSTREN | QQYDRLPLS [En_HC] the result was 1.50 (6 of 6 replicates).
With HISSLTLQGMRQVNSVA | QMTTREN | QQYDRLPLA [En_Gen] the result was 0.29 (6 of 6 replicates).
With TIGGTLMYGVRNRSNVA | EVSQRLN | QQYDRLPLM [En_Gen] the result was 0.80 (6 of 6 replicates).
With KLMQMTLTEGYFKNSVA | QASTREN | QSYHRLPLS [En_HC] the result was 2.63 (5 of 6 replicates).
With KLGMTLNELMMKKNNVA | DLVTREN | QQYHRLPLS [En_Gen] the result was 0.12 (6 of 6 replicates).
With KLTATMRFEQKASNNIA | EVTNRLK | QQYYRLPLA [En_Gen] the result was 0.74 (6 of 6 replicates).
With KVSVFPRGLMSRQDSIA | DNVTRSN | QQYDRLPLS [En_Gen] the result was 2.92 (5 of 6 replicates).
With SFPSEMDQQQFQVNSIA | GEQHTAR | QQYGRLPLS [En_Gibbs] the result was 2.20 (6 of 6 replicates).
With ILMQPQKELGAAKDNIA | DGSIRLG | QQYHRLPLV [En_Gibbs] the result was 0.60 (6 of 6 replicates).
With HISYSMQHLSKNKNSVA | NQQTREY | QQYHMLPLS [En_HC] the result was 0.38 (6 of 6 replicates).
With HLSQSTDLESVHKNSIA | DLMTREN | QQYHRLPLS [En_HC] the result was -0.01 (6 of 6 replicates).
With KVQNHSSGTLNDKNAVA | EDKNVAV | QQYVRLPLI [En_Gibbs] the result was 4.32 (2 of 6 replicates).
With KLTHPTDSWLNHVNSIA | DANISVE | QQYYQLPLT [En_Gibbs] the result was 0.76 (6 of 6 replicates).
With TISGVMMQLSHSKNNVA | EVSMRLD | QQYVRLPLA [En_Gen] the result was 1.19 (5 of 6 replicates).
With KVSQLGLYGQRNANSVA | EASTRED | QQYHRLPLS [GP_Gibbs] the result was -0.28 (6 of 6 replicates).
With LLSGMVEEQITRQNNIA | EGEFRDM | QQYNRLPLS [En_Gibbs] the result was 0.57 (6 of 6 replicates).
With KIIQEGLYESRNKNSVA | NASTRSP | QQYHRLPLS [GP_Gibbs] the result was -0.53 (6 of 6 replicates).
With KLSWSVNFFGHAINSVA | EMETREN | QQYDRLPLS [En_HC] the result was 1.32 (6 of 6 replicates).
With MISQMYNMGQFAINSVA | QASERNE | QQYDRLPLI [En_Gen] the result was 1.35 (6 of 6 replicates).
With KVSEFPRGLMSRQDSIA | DNVTREN | QQYDRLPLS [En_Gen] the result was 2.25 (5 of 6 replicates).
With MLNGPVEIEQHKWNSVA | SAEILAM | QQYGRLPFS [En_Gibbs] the result was 0.39 (6 of 6 replicates).
With SLAESAHMESRNKNSVA | DNSTRES | QHYHRLPLS [En_HC] the result was nd (0 of 6 replicates).
With HLNTEWNHGANRDNNIA | EAQTVAA | QDYFRLPII [En_Gibbs] the result was 1.76 (5 of 6 replicates).
With MISQSFLIGMKAKNSVA | QTSTREQ | QQYDRLPLS [En_HC] the result was 0.95 (6 of 6 replicates).
With TISQMSTLFSQSINNVA | EVSTREQ | QQYDRLPLM [En_Gen] the result was 0.42 (6 of 6 replicates).
With KITATMRFEQKASNNIA | EVSMRTK | QQYVRLPLA [En_Gen] the result was 0.98 (6 of 6 replicates).
With MLLQSTWYGERNRNSVA | HASTRED | QQYHRLPLI [En_HC] the result was 1.34 (6 of 6 replicates).
With IVSQLMLVGMHAKNSIA | EASSRLN | QQYDRLPLF [En_Gen] the result was 0.71 (4 of 6 replicates).
With KISQMVTYESTWHGAIA | QTSEREQ | QQYHRLPFS [En_HC] the result was 0.66 (6 of 6 replicates).
With KMSMSWMQLERNKNSVA | QASQREQ | QQYHRLPLS [GP_Gibbs] the result was -0.04 (6 of 6 replicates).
With KLWYAMDMFQGEANAVA | DQQLTRE | QQYARLPLS [En_Gibbs] the result was 2.09 (1 of 6 replicates).
With KVVMSVNGLQRNKNSVA | QASTRES | QQYHRLPLS [GP_Gibbs] the result was 0.18 (6 of 6 replicates).
With TIGGTLMYGYRNRNNVA | EVSERLN | QQYDRLPLI [En_Gen] the result was 0.75 (6 of 6 replicates).
With SLIPFEQQIMKDLNNIA | NTQVRAT | QQYMRLPFM [En_Gibbs] the result was 0.41 (6 of 6 replicates).
With ILSDHAVNQYDEADNIA | DKTETSV | QQYARLPLS [En_Gibbs] the result was 1.67 (6 of 6 replicates).

For reference, 5 entries of the list once more:

| CDR-L1 | CDR-L2 | CDR-L3 | group | log10 Kd (nM), mean | replicates with signal |
|---|---|---|---|---|---|
| KLEWSQLYWSRNVNSVA | NASTREE | QQYHRLPLS | GP_Gibbs | -0.29 | 6 of 6 |
| SFPSEMDQQQFQVNSIA | GEQHTAR | QQYGRLPLS | En_Gibbs | 2.20 | 6 of 6 |
| SLIPFEQQIMKDLNNIA | NTQVRAT | QQYMRLPFM | En_Gibbs | 0.41 | 6 of 6 |
| LLSGMVEEQITRQNNIA | EGEFRDM | QQYNRLPLS | En_Gibbs | 0.57 | 6 of 6 |
| KLTHPTDSWLNHVNSIA | DANISVE | QQYYQLPLT | En_Gibbs | 0.76 | 6 of 6 |

Values of this round are not directly comparable with the first-round values of the same sequences.
Nonspecific signal, from three strains lacking the peptide, appeared in 4% of pairings of all light chain designs, centred on 2.64 (5% of these signals below 1.59); values are not corrected for it.
The authors averaged sequences with at least three values out of six and counted those with two or fewer as poor binders.